Patent publication US20110151020A1, “ACTIVE SUBSTANCE COMBINATION WITH GEMCITABINE FOR THE TREATMENT OF EPITHELIAL CANCER” (priority 2008, published 2011)

What was measured:
pancreatic cancer cells = assay: Transmigration assay (modified Boyden chamber, SDF-1 stimulus); assay type: cell-based, human; conditions: SDF-1 as migratory stimulus
Gli1 = assay: Hedgehog activation / Gli expression (rtPCR); assay type: cell-based, human
[1] = tested on: pretreated Qtracker-labeled pancreatic cancer cells; assay: Systemic infusion assay of pretreated cells (lung metastasis); assay type: in vivo, mice; conditions: cells pretreated in vitro, systemically infused; lungs scanned
Excerpt: Recently, the inventors have shown that the chemokine receptor CXCR4 and its specific lig- and Stromal-Derived Factor-1 (SDF-1) plays a pivotal role in metastasis of pancreatic CSC (see Hermann et al., 2007, supra). […] Pretreated and Qtracker-labeled cells were systemically infused. Seeded cells were tracked using near infrared scanning of the lungs as the primary target organ. Positive signals were confirmed by histological analysis.
In vitro treatment of pancreatic cancer cells. […] For the evaluation of the in vivo tumorigenicity, […] L3.6pl cells were pretreated with the respective regimen and the remaining viable cells were orthotopically implanted into the pancreas of nude mice and evaluated on day 35. For the systemic infusion assay, cells were labelled with the Qtracker 800 labelling kit (Invitrogen) according to the manufacturer's instructions, and 5×10^5 cells were injected intravenously into mice. After 4 weeks, explanted lungs were scanned for metastases with a near-infrared imaging platform (Odyssey, Li-cor, Lincoln, Nebr.). Positive signals were verified by histology (H&E staining).

CC1=C2C[C@H]3[C@@H](CC=C4C[C@@H](O)CC[C@@]43C)[C@@H]2CC[C@]12O[C@@H]1C[C@H](C)CN[C@H]1[C@H]2C [Cyclopamine, 11-deoxojervine]
migratory activity (pancreatic cancer cells): strong reduction | decrease in hedgehog activation (Gli1): 40% | metastatic activity in vivo [1]: tended to be reduced
